## scFv variants of Ab-95 (light chain) against a SARS-CoV-2 spike peptide

The target is the same throughout: PDVDLGDISGINAS, from the HR2 region of SARS-CoV-2 spike.

The variants keep the heavy chain, the linker and the frameworks of Ab-95 (scFv order VH, a (GGGGS)3 linker, VL).
VH: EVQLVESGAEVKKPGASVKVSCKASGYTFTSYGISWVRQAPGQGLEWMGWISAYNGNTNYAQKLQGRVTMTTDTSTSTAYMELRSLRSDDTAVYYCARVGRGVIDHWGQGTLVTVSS
VL: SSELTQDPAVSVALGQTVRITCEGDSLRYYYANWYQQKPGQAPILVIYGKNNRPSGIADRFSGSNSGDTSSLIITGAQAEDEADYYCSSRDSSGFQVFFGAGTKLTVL

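Phage display of a naive human antibody library on the peptide gave the parent. AAYL52 was designed without a model: most single CDR substitutions and a random sample of double and triple ones. Affinity was read by AlphaSeq, a pooled yeast mating assay with surface-displayed partners. Binding brings cells together so that they mate, and sequencing counts the barcode pairs among the diploids. Read counts were normalised to the haploid input and turned into Kd by a linear fit to BCL2-family pairs of known affinity, for each replicate. There are three technical replicates.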

The parent's light chain CDRs are EGDSLRYYYAN, GKNNRPS, SSRDSSGFQVF; each variant's own CDRs replace them letter for letter.
Affinities are written as log10 Kd with Kd in nM; a lower number is a better binder.
Where no diploid with the target was found in that replicate, the entry reads "ND": below detection, most likely a poor binder, though not proof of it.

CDR-L1	CDR-L2	CDR-L3	replicates, log10 nM	control signals
EGDSLRYYYAN	GKNNRPE	HSRDSFGFQVF	3.08 / 1.85 / 2.12	2 of 9 (5.51)
EGDSLRYYYAN	GKNNRPS	SSRDSSGFDVF	2.35 / 2.25 / 1.79	4 of 9 (3.54)
EGDSLRYYMAN	GKNNRPS	SSRDSSGWQVW	4.09 / ND / 2.39	0 of 9
CPDSLRYYYAN	GKVNRPS	SSRDSSGFQVF	ND / ND / 3.91	1 of 9 (3.31)
EGDSLRYYYAN	GKNNRPS	YSRASSGQQVF	ND / 2.97 / ND	2 of 9 (3.80)
EGDSLRGYYAM	GKNNRPS	SSRDSSGFQVF	3.38 / 3.31 / 2.33	1 of 9 (5.70)
EGDSLDYYMAN	GKNNRPS	SSRDSSGFQAF	1.95 / 2.02 / 1.77	4 of 9 (4.15)
EGDELRHYYAN	GKNNRPS	SSRDSSGGQVF	ND / 4.13 / 3.03	4 of 9 (3.98)
EGDSLRYYYAN	GFNNRTS	SSRDSFGFQVF	4.06 / 4.29 / 4.84	4 of 9 (4.36)
EGDSLRYYYAH	GKNNCPS	SSRDSSGFNVF	3.68 / ND / ND	3 of 9 (4.00)
EGDSLRYYYAH	GKNNRPS	SERDSSGFHVF	3.32 / ND / ND	3 of 9 (3.89)
EGDCLRYYYAN	GSNNRPD	SSRDSSGFQVF	2.43 / 2.68 / 2.69	2 of 9 (5.03)
EGDSLRYYYAD	GKNNRPS	SSRDSSYFQVF	ND / ND / ND	1 of 9 (3.87)
EGDSLMYYYAN	GKNNTPS	SSRDSTGFQVF	3.29 / ND / 2.42	2 of 9 (3.06)
EGDSLRYYYAN	GKNNRHT	SNRDSSGFQVF	2.65 / 2.23 / 2.56	2 of 9 (4.94)
EGDSMRYYYAN	GKNNRPS	SSRESSGFQVF	2.69 / ND / 3.65	1 of 9 (2.59)
EGDSLEYYYAN	GKNNSPS	SSHDSSGFQVF	2.92 / 3.68 / 3.99	6 of 9 (4.06)
EGDSLRTYYAN	GKNNRPS	SSIDSSGFQVL	2.57 / 3.00 / 2.01	4 of 9 (3.76)
EGDSLRYYYAN	GKYNQPS	SSTDSSGFQVF	3.87 / 3.66 / 4.06	2 of 9 (4.08)
QWDHLRYYYAN	GKNNRPS	SSRDSSGFQVF	4.10 / 2.68 / ND	2 of 9 (4.36)
EGDSLRYYYLN	GKNSRLS	SSRDSSGFQVF	ND / ND / ND	0 of 9
EGDSKRQYYAN	GKNERPS	SSRDSSGFQVF	1.88 / 2.08 / 1.66	2 of 9 (3.87)
EGDSLKLYYAN	GKNNRMS	SSRDSSGFQVF	3.41 / 2.96 / 3.48	3 of 9 (4.12)
EGDDLRYYYAK	GKRNRPS	SSRDSSGFQVF	ND / 3.26 / ND	1 of 9 (4.36)
EGDSARYYYAN	LKNNRPS	SSRDQSGFQVF	ND / ND / 2.76	2 of 9 (4.65)
EGDSLRLYYQN	GKNNRPS	QSRDSSGFQVF	5.31 / ND / 4.46	5 of 9 (4.19)
EGDSLRYYYAN	GKNNRPS	SSRDSSGHQVI	2.36 / 2.61 / 2.76	2 of 9 (3.80)
EGDSLRYYYAN	GKNPRPS	KSRDSMGFQVF	5.51 / ND / ND	0 of 9
ETDSLRYYYAN	GKNNRDS	SSRDSSGFQVL	3.27 / ND / 3.95	3 of 9 (3.68)
EGDSLRYYDAN	RKNNRPS	SKRDSSGFQVF	5.66 / 3.70 / 2.91	5 of 9 (3.98)
EGDSLKYYYAN	GKNNRPK	SSRDFSGFQVF	2.27 / 3.13 / 2.04	2 of 9 (3.69)
EGDSLRYYYAN	QKNNRLS	SSRDSSGFIVF	4.83 / ND / ND	4 of 9 (3.48)
EGDNLRYYYAN	GKNNFPS	SSRDSSGFRVF	ND / 4.00 / ND	2 of 9 (3.92)
EGDSLRYYYAN	MSNNRPA	SSRDSSGFQVF	3.50 / 3.87 / 3.93	7 of 9 (4.50)
EGDKLRYYDAN	GKNGRPS	SSRDSSGFQVF	1.95 / 1.95 / 1.42	1 of 9 (4.01)
EGWSLRYYYAL	GKNNRPS	SSMDSSGFQVF	ND / 4.24 / ND	4 of 9 (3.55)
EGDSLRYYYAN	GKNNRPS	SSRKSDGFQVF	2.21 / 2.51 / 2.04	4 of 9 (3.89)
EGDSLRYYYAN	GKNNRDC	SSRKSSGFQVF	5.05 / 5.49 / ND	2 of 9 (3.73)
EGDSLRYYYAN	GKNNRPS	SSADSSGSQVG	2.71 / 3.18 / 2.74	3 of 9 (3.47)
EGDSLRYYYAN	GKNGRPS	HSRDSSGCQVF	4.00 / ND / ND	4 of 9 (3.90)
EGDSLRYYYAN	GKNNYPS	SSRDSSGEQGF	ND / ND / ND	0 of 9
EMDSLRYYYAN	GKCNRPS	SSRDSSGRQVF	ND / 5.56 / ND	3 of 9 (3.39)
EGDSLRYYYAN	GKHPRPS	SSRDSSGFTVF	4.26 / ND / ND	1 of 9 (5.31)
EGDSLRYYYAN	GKNNRPS	QSRDSPGFQVF	1.85 / 2.23 / 1.85	0 of 9
EGMSLRYYYAQ	GKNNRPK	SSRDSSGFQVF	3.88 / 2.50 / 3.03	2 of 9 (3.74)
EGDSLRYYSAG	GKWNRPS	SSRDSSGFQVF	ND / ND / ND	2 of 9 (3.82)
EGDSLRYSYAN	GGNNRPS	FSRDSSGFQVF	2.62 / 2.47 / 3.55	0 of 9
EGDSLRYYYAN	GEKNRPR	SSRDSSGFQVF	3.50 / 3.11 / 2.35	2 of 9 (4.20)
EWDSLRYYYAN	GNNNRPS	SSRDSSGPQVF	ND / 5.60 / ND	1 of 9 (3.80)

4 of these entries, quoted again:

{"CDR-L1": "EGDSLRYYYAN", "CDR-L2": "GKNNRPS", "CDR-L3": "SSADSSGSQVG", "replicates, log10 nM": "2.71 / 3.18 / 2.74", "control signals": "3 of 9 (3.47)"}
{"CDR-L1": "EGDSLRYYYAN", "CDR-L2": "MSNNRPA", "CDR-L3": "SSRDSSGFQVF", "replicates, log10 nM": "3.50 / 3.87 / 3.93", "control signals": "7 of 9 (4.50)"}
{"CDR-L1": "EGDELRHYYAN", "CDR-L2": "GKNNRPS", "CDR-L3": "SSRDSSGGQVF", "replicates, log10 nM": "ND / 4.13 / 3.03", "control signals": "4 of 9 (3.98)"}
{"CDR-L1": "EGDNLRYYYAN", "CDR-L2": "GKNNFPS", "CDR-L3": "SSRDSSGFRVF", "replicates, log10 nM": "ND / 4.00 / ND", "control signals": "2 of 9 (3.92)"}

As a blank, each scFv also met three strains without target: over library AAYL52, 28% of these pairings were detected, typically at 3.91 and seldom below 2.90. Also given: how often the same scFv was detected with the empty control strains, with their mean in brackets.

Data: MIT Lincoln Laboratory AlphaSeq set, Engelhart et al. 2022, doi:10.1038/s41597-022-01779-4, as distributed in FLAb.